Patent US8536210B2, “Compounds for inhibiting semicarbazide-sensitive amine oxidase (SSAO)/vascular adhesion protein-1 (VAP-1) and uses thereof for treatment and prevention of diseases” (Semmelweis Egyetem, priority 2008, dated 2013)

Sequences of proteins named here, by UniProt entry; tags and fusion partners are left off. A change or cut given only in a name is not applied to a line headed by its entry.
UniProt Q16853: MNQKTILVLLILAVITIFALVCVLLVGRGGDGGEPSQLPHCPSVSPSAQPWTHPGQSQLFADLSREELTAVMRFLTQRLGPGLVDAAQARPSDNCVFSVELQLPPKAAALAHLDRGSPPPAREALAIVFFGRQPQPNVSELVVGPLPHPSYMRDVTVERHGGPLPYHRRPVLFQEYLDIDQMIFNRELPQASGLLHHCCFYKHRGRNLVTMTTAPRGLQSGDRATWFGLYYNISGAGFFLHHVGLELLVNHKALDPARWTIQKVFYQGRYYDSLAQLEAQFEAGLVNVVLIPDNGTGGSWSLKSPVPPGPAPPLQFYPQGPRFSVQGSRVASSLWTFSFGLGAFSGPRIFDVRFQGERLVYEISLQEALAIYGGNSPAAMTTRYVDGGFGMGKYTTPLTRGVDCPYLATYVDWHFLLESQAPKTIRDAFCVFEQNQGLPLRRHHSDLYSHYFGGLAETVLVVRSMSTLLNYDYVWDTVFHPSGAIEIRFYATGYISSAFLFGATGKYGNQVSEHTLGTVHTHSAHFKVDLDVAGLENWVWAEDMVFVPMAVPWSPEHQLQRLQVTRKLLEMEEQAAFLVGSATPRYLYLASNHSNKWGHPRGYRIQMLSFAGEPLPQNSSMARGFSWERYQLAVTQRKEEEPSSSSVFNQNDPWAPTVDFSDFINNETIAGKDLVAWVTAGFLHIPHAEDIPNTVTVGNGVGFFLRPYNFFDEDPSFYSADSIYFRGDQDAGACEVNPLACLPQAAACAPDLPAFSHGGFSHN

Target: human recombinant VAP-1 (SSAO/VAP-1 enzyme) (Homo sapiens (Human), UniProt Q16853)
Assay: In vitro inhibition of SSAO activity on human recombinant VAP-1 (colorimetric, benzylamine substrate)
Assay type: biochemical
Conditions: recombinant SSAO/VAP-1 in CHO cell homogenate, 1 mM benzyl amine
Method: For determining the SSAO/VAP-1 activity, the colorimetric method described by Holt, A (Holt, A., Anal. Biochem. 244, 384, 1997) for monoamine oxidase and analogous enzymes was used. Recombinant SSAO/VAP-1 enzyme was expressed in Chinese Hamster Ovary cells (CHO). These cells and cell cultures have been described earlier (Smith, D. J. et al, J. Exp. Med. 188, 17, 1998). The cell homogenate was prepared as follows: a suspension was made of approximately 3.6×10^8 cells in 25 ml lysation buffer (150 mM NaCl, 10 mM Tris-base pH 7.2, 1.5 mM MgCl2, 1% NP40), that was stirred for 1 night and incubated at 4° C. The homogenate was centrifugated (18000 g). The supernatant was used directly afterwards for the measurement. SSAO/VAP-1 activity measurement was carried out as follows on 96 precisely microtitrated plates, a given amount of inhibitor was added to each. The amount of the inhibitors varied among the measurements, the final concentration being between 1 nM and 50 μM in general, in 20 μl aqueous total volume for all cases. […] The plates were incubated for 30 min at 37° C. and the background absorbance was measured at 490 nm by a Wallac Victor II apparatus. […] The increase in the absorbance showing the SSAO/VAP-1 activity was measured at 490 nm. The inhibition was calculated in the % of the control absorbance corrected with the background absorbance, IC50 values were calculated using GraphPad Prism. […]

IC50: 53 µM
Compound: CCOc1c(C=NO)c(=O)n(C)c(=O)n1C [Compound 16, 6-Ethoxy-1,3-dimethyl-2,4-dioxo-1,2,3,4-tetrahydropyrimidine-5-carbaldehyde oxime]
